Measurements taken from PMC5779714, “Metallochaperone UreG serves as a new target for design of urease inhibitor: A novel strategy for development of antimicrobials” (PLoS Biology, 2018).

The chains behind the UniProt entries cited, without tags or fusion partners. Where a name states a change or a piece, a line headed by the entry shows the natural chain unless it says otherwise.
UniProt Q09066: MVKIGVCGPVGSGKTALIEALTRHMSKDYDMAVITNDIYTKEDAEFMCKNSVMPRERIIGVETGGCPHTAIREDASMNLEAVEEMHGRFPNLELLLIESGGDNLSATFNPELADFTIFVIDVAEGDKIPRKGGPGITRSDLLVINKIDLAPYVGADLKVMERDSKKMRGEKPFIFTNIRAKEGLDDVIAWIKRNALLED

Biological target: UreG (Helicobacter pylori, UniProt Q09066)
Settings: read-out: dissociation constant (Kd) of BiNTA binding to UreG; Ryan–Weber fit of UV-vis titration

O=C([O-])CN(CC(=O)[O-])CC(=O)[O-].[Bi+3] [BiNTA, Bi nitrilotriacetic acid]
Kd: 1100 nM
